Experimental data published in ChEMBL document CHEMBL4425117 (Bioorg Med Chem Lett, 2016).

By UniProt entry, the sequences of proteins in these tests, tags left out.
UniProt P25101, whole entry: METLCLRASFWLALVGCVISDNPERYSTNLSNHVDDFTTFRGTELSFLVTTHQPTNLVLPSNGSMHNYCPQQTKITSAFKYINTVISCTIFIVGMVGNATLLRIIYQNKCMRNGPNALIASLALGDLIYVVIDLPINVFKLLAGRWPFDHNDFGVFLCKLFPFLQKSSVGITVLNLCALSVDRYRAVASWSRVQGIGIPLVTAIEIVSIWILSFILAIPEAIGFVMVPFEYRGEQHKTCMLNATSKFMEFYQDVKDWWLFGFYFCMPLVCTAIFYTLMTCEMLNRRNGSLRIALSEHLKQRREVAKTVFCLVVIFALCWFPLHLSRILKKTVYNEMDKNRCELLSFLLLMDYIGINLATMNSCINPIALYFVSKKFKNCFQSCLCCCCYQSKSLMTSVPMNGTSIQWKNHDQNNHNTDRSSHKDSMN

Biological target: Endothelin-1 receptor (Homo sapiens, UniProt P25101)
Assay: Displacement of [125I]-ET-1 from human ETA receptor expressed in CHO cell membranes after 2 hrs by scintillation counting

COc1nc(C)cnc1NS(=O)(=O)c1cccnc1-c1ccc(-c2nnco2)cc1 [ZIBOTENTAN]
IC50: 0.021 µM
